From PubChem BioAssay AID1985 (Southern Research Specialized Biocontainment Screening …, 2009)

System: S. Typhi PhoP-promoter GFP reporter, fluorescence, 4 h
Experiment: PhoP regulon inhibitor project modified counter assay, GFP fluorescence readout, dose response (AID 1985)

Compound | IC50
O=C(N/N=C/c1ccc([N+](=O)[O-])o1)C1CC1 | 22 µM
O=C(Nc1cccnc1)c1ccc([N+](=O)[O-])o1 | 15.9 µM
CCOC(=O)c1cn(CC)c2cc(N3CCN(C)CC3)c(F)cc2c1=O | 115 µM
O=C(NNC(=S)Nc1ccc(Cl)c(Cl)c1)c1ccccn1 | 18.4 µM
CC(C)(C)c1nnc(N/N=C/c2cc(Br)ccc2O)n(N)c1=O | 28.8 µM
